Consider one molecule from US20240174596A1 (Northwestern University, priority 2021, published 2024).

Amino acid sequences for entries named in this document (tags omitted). Residues count along the entry.
UniProt P80147, 29-500: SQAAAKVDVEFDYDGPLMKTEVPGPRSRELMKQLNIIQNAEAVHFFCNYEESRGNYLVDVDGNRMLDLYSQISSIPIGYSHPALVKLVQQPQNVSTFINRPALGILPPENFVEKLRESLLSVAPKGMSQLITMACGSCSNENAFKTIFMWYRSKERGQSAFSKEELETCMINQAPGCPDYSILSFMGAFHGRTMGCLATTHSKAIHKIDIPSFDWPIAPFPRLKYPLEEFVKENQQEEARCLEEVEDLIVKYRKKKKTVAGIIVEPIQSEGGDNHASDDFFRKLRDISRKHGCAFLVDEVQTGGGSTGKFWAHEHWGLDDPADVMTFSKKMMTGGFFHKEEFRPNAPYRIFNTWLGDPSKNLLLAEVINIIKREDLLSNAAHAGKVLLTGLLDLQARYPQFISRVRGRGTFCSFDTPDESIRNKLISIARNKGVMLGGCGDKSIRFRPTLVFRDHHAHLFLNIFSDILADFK

Structures are written as SMILES. Structures can show the parent of a compound that is named as a salt.

In the experiment the target is GABA-AT (Sus scrofa, UniProt P80147). The experiment in a line: Reversible inhibition of GABA-AT (coupled assay with SSDH). As to conditions: Ki = IC50/(1 + [S]/Km); 9-point assay. Details: was purified from pig brain following a procedure described previously; from tissue; host or cells: pig brain. The format is biochemical, pig. On the procedure:
All reagents for enzyme purification and assays were purchased from Sigma-Aldrich (St. Louis, MO, USA). […] All the enzyme assays for the inactivation, partition ratio, and dialysis experiment were recorded on a Synergy H1 hybrid multimode microplate reader (Biotek, USA) with transparent 96-well plates.
96-well plates were loaded with 80 μL of an assay mixture containing excess SSDH, 1 mM NADP^+, 11.1 mM GABA, and 10 μL of various concentrations of the tested compounds in 50 mM potassium pyrophosphate buffer (pH 8.5, 5 mM α-ketoglutarate, and 5 mM β-mercaptoethanol). […] The microplate was shaken at 25° C. for 1 min, and the remaining enzyme activity was determined by observing the change in absorbance at 340 nm at 25° C. based on the conversion of NADP^+ to NADPH. […] Subsequent Ki values were determined using equation (2) All assays were performed in duplicate.

As a reminder, the Ki is a measure of affinity in units of concentration, obtained from inhibition or displacement. `N[C@H]1C[C@@H](C(=O)O)CC1(F)F` [Compound 4, (1R,4S)-4-Amino-3,3-difluorocyclopentanecarboxylic acid hydrochloric acid salt, reference compound]: the Ki is 90 µM.
